Test: Dissociation constant (Kb, pKb) of the water-soluble compounds

For Na citrate dihydrate, the pKb was 10.4 and the Kb (dissociation constant) was 3.80 × 10^−11.

From patent US6926936B2, “Ink-jet recording sheet with improved ozone resistance” (Felix Schoeller Jr. Foto-und Spezialpapiere GmbH & Co. KG, priority 2002, dated 2005)
